pIC50: −log10 of the molar value. Like-named read-outs stand apart in the source and are kept apart here.
Assays:
CypE = CypE (Homo sapiens, UniProt Q9UNP9); assay: Chymotrypsin coupled prolyl-isomerase assay; assay type: biochemical
CypD = CypD (Homo sapiens, UniProt P30405); assay: Chymotrypsin coupled prolyl-isomerase assay; assay type: biochemical
CypH = CypH (Homo sapiens, UniProt O43447); assay: Chymotrypsin coupled prolyl-isomerase assay; assay type: biochemical
CypA = CypA (Homo sapiens, UniProt P62937); assay: Chymotrypsin coupled prolyl-isomerase assay; assay type: biochemical
Cyp40 = Cyp40 (Homo sapiens, UniProt Q08752); assay: Chymotrypsin coupled prolyl-isomerase assay; assay type: biochemical
CypG = CypG (Homo sapiens, UniProt Q13427); assay: Chymotrypsin coupled prolyl-isomerase assay; assay type: biochemical
CypC = CypC (Homo sapiens, UniProt P45877); assay: Chymotrypsin coupled prolyl-isomerase assay; assay type: biochemical
PPWD1 = PPWD1 (Homo sapiens, UniProt Q96BP3); assay: Chymotrypsin coupled prolyl-isomerase assay; assay type: biochemical
PPIL1 = PPIL1 (Homo sapiens, UniProt Q9Y3C6); assay: Chymotrypsin coupled prolyl-isomerase assay; assay type: biochemical
NKTR = NKTR (Homo sapiens, UniProt P30414); assay: Chymotrypsin coupled prolyl-isomerase assay; assay type: biochemical
CypB = CypB (Homo sapiens, UniProt P23284); settings: read-out: Wild-Type Cyclophilin Prolyl Isomerase Inhibition IC50 Values, CypB; wild-type CypB
[1] = read-out: Wild-Type Cyclophilin Prolyl Isomerase Inhibition IC50 Values, CypE, wild-type CypE
[2] = read-out: Wild-Type Cyclophilin Prolyl Isomerase Inhibition IC50 Values, CypD, wild-type CypD
[3] = read-out: Wild-Type Cyclophilin Prolyl Isomerase Inhibition IC50 Values, CypH, wild-type CypH
[4] = read-out: Wild-Type Cyclophilin Prolyl Isomerase Inhibition IC50 Values, CypA, wild-type CypA
[5] = read-out: IC50 CypG, prolyl-isomerase inhibition, 5 nM cyclophilin
[6] = read-out: Wild-Type Cyclophilin Prolyl Isomerase Inhibition IC50 Values, CypG, wild-type CypG
[7] = read-out: Wild-Type Cyclophilin Prolyl Isomerase Inhibition IC50 Values, CypC, wild-type CypC
[8] = read-out: Wild-Type Cyclophilin Prolyl Isomerase Inhibition IC50 Values, PPWD1, wild-type PPWD1
[9] = read-out: Wild-Type Cyclophilin Prolyl Isomerase Inhibition IC50 Values, PPIL1, wild-type PPIL1
[10] = read-out: Wild-Type Cyclophilin Prolyl Isomerase Inhibition IC50 Values, NKTR, wild-type NKTR
[11] = read-out: IC50 CypH, prolyl-isomerase inhibition, 5 nM cyclophilin
[12] = read-out: IC50 PPWD1, prolyl-isomerase inhibition, 5 nM cyclophilin
[13] = read-out: IC50 CypC, prolyl-isomerase inhibition, 5 nM cyclophilin
[14] = read-out: IC50 PPIL1, prolyl-isomerase inhibition, 5 nM cyclophilin
[15] = read-out: Wild-Type Cyclophilin Prolyl Isomerase Inhibition IC50 Values, Cyp40, wild-type Cyp40
[16] = read-out: IC50 NKTR, prolyl-isomerase inhibition, 5 nM cyclophilin

Amino acid sequences for entries named in this document (tags omitted). Residues count along the entry.
UniProt Q9UNP9, 131-301 limits assumed: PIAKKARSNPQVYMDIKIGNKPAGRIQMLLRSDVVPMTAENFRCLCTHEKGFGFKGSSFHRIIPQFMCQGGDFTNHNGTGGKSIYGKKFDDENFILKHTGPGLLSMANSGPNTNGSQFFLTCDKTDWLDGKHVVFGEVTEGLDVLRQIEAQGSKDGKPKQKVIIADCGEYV
UniProt P30405, 45-207 limits assumed: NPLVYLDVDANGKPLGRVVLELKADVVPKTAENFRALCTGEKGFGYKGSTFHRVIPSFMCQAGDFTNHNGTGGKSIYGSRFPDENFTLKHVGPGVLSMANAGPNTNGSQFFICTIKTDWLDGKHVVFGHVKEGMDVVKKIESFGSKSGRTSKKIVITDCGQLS
UniProt O43447, whole entry: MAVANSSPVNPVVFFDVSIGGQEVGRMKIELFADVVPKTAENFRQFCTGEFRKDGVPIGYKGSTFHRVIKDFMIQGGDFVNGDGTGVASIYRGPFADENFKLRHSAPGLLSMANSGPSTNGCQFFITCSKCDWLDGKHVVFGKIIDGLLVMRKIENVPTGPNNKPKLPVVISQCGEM
UniProt P62937, whole entry: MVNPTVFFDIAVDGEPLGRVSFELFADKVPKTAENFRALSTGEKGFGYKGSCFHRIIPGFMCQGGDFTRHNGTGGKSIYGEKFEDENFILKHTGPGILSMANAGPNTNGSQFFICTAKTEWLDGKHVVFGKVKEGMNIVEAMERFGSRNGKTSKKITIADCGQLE
UniProt Q08752, 1-183 limits assumed: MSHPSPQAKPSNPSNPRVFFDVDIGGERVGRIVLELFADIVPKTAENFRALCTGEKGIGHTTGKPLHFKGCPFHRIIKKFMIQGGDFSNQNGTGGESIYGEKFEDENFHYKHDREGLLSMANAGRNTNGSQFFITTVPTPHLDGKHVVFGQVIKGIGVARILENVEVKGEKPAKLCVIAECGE
UniProt Q13427, 1-179 limits assumed: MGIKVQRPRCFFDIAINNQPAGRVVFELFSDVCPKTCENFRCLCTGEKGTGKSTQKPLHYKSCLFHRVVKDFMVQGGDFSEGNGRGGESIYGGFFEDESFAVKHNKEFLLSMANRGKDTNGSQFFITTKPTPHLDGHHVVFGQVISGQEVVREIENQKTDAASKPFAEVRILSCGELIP
UniProt P45877, 24-212 limits assumed: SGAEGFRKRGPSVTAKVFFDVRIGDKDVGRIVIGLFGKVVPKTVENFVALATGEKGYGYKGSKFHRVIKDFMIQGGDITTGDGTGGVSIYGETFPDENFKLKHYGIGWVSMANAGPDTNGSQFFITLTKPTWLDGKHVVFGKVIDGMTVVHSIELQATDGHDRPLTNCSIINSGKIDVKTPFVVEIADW
UniProt Q96BP3, 473-646 limits assumed: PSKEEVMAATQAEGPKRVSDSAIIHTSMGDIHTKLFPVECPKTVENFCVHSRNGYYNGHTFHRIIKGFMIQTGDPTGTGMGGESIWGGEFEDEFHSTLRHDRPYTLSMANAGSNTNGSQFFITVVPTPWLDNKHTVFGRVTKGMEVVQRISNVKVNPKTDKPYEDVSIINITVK
UniProt Q9Y3C6, whole entry: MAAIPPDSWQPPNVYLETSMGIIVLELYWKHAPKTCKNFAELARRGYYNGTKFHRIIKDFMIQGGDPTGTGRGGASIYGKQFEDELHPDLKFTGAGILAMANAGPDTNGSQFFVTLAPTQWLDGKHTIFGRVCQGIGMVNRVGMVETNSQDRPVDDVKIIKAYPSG
UniProt P30414, 7-179 limits assumed: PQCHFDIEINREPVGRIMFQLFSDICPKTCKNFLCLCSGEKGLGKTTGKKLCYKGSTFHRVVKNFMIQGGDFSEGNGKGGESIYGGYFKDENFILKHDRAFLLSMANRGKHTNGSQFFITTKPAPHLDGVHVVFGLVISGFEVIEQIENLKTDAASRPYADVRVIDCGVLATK
UniProt P23284, 34-216 limits assumed: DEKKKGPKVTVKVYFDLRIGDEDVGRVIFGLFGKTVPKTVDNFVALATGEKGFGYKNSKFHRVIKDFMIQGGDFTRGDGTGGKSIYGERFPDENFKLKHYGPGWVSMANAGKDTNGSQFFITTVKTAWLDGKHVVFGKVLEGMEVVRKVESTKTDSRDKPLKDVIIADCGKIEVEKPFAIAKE

Row | SMILES | pIC50 (CypE; [1]) | pIC50 (CypD; [2]) | pIC50 (CypH; [3]) | pIC50 (CypA; [4]) | pIC50 (Cyp40) | pIC50 (CypG; [6]) | pIC50 (CypC; [7]) | pIC50 (PPWD1; [8]) | pIC50 (PPIL1; [9]) | pIC50 (NKTR; [10]) | pIC50 (CypB) | also measured
1 | CC(C)(C)c1ccc(C[C@@H]2NC(=O)[C@]3(Cc4ccccc4)CCCN(C3)C(=O)/C=C/C(=O)NCC[C@@H](C(=O)NCCOCCN)NC(=O)Cc3ccccc3CNC2=O)cc1 | 6.29 | 7.19 | < 4.00 | 6.52 | 6.70 | 4.44 | 6.87 | 5.80 | 5.89 | < 4.00 | 7.05 | pIC50 (CypG; [5]): 4.40
2 | NCCOCCNC(=O)[C@@H]1CCNC(=O)/C=C/C(=O)N2CCC[C@](Cc3ccccc3)(C2)C(=O)N[C@@H](C/C=C/c2ccccc2)C(=O)NCc2ccccc2CC(=O)N1 | 6.49 | 7.10 | 5.00 | 6.55 | 7.15 | 5.74 | 6.91 | 6.35 | 6.52 | 5.05 | 7.30 | 
3 | COC(=O)CCc1ccc(-c2ccc(C[C@@H]3NC(=O)[C@]4(Cc5ccccc5)CCCN(C4)C(=O)/C=C/C(=O)NCC[C@@H](C(=O)NCCOCCN)NC(=O)Cc4ccccc4CNC3=O)cc2)cc1 | 6.72 | 6.96 | 4.30 | 6.05 | 5.85 | 4.52 | 5.92 | 5.52 | 6.82 | < 4.00 | 6.57 | 
4 | NCCOCCNC(=O)[C@@H]1CCNC(=O)/C=C/C(=O)N2CCC[C@](Cc3ccccc3)(C2)C(=O)N[C@@H](Cc2ccc(-c3ccc([C@H]4C[C@@H]4C(=O)O)cc3)cc2)C(=O)NCc2ccccc2CC(=O)N1 | 6.77 | 6.89 | 4.92 | 5.85 | 5.15 | 4.85 | 5.52 | 5.52 | 7.30 | < 4.60 | 6.52 | pIC50 (CypH; [11]): 4.92; pIC50 (PPWD1; [12]): 5.52
5 | NCCOCCNC(=O)[C@@H]1CCNC(=O)/C=C/C(=O)N2CCC[C@](Cc3ccccc3)(C2)C(=O)N[C@@H](Cc2ccc(-c3ccc(CCN)cc3)cc2)C(=O)NCc2ccccc2CC(=O)N1 | 5.00 | 5.00 | < 4.30 | 4.52 | 4.92 |  | 5.52 | 5.15 |  | < 4.30 | 5.40 | pIC50 (CypE; read-out: IC50 CypE, prolyl-isomerase inhibition, 5 nM cyclophilin): 5.00; reduction in potency for CypD on replacing the carboxylate with an amine (CypD): 500- to 1,000 fold; pIC50 (CypD; read-out: IC50 CypD, prolyl-isomerase inhibition, 5 nM cyclophilin, Suc-AAPF-AMC, mean±s.e.m. of 3 technical replicates (B52, B53, C3A wild-type: mean±s.d. of 4 independent replicates)): 5.00; pIC50 (CypA; read-out: IC50 CypA, prolyl-isomerase inhibition, 5 nM cyclophilin): 4.52
6 | NC(=O)[C@@H]1CCNC(=O)/C=C/C(=O)N2CCC[C@](Cc3ccccc3)(C2)C(=O)N[C@@H](Cc2ccc(-c3ccc(C(CC(=O)O)CC(=O)O)cc3)cc2)C(=O)NCc2ccccc2CC(=O)N1 | 6.00 | 7.00 | < 4.30 | 5.22 | < 4.30 | < 4.30 | < 4.30 | < 4.30 | < 4.30 | < 4.30 | 5.40 | 
7 | NCCOCCNC(=O)[C@@H]1CCNC(=O)/C=C/C(=O)N2CCC[C@](Cc3ccccc3)(C2)C(=O)N[C@@H](Cc2ccc(-c3ccc4c(CC(=O)O)coc4c3)cc2)C(=O)NCc2ccccc2CC(=O)N1 | 6.72 | 7.05 | < 5.00 | 5.72 | 5.40 | < 5.00 | 4.82 | < 5.00 | 6.22 | < 5.00 | 6.40 | pIC50 (CypC; [13]): 4.82; pIC50 (PPIL1; [14]): 6.22
8 | NCCOCCNC(=O)[C@@H]1CCNC(=O)/C=C/C(=O)N2CCC[C@](Cc3ccccc3)(C2)C(=O)N[C@@H](Cc2ccc(-c3ccc(/C=C/CC(=O)O)cc3)cc2)C(=O)NCc2ccccc2CC(=O)N1 | 6.85 | 7.22 | < 4.60 | 6.10 | 5.80 | 5.00 | 4.82 | < 5.00 | 6.40 | < 5.00 | 6.70 | pIC50 (CypG; [5]): 5.00; pIC50 (CypC; [13]): 4.82
9 | COc1ccc(-c2ccc(C[C@@H]3NC(=O)[C@]4(Cc5ccccc5)CCCN(C4)C(=O)/C=C/C(=O)NCC[C@@H](C(=O)NCCOCCN)NC(=O)Cc4ccccc4CNC3=O)cc2)cc1 | 6.41 | 6.92 | 4.05 | 5.96 |  | 5.72 | 6.00 | 6.10 | 6.46 | 5.30 | 6.82 | pIC50 (CypH; [11]): 4.05; pIC50 (Cyp40; [15]): 6.82; pIC50 (NKTR; [16]): 5.30
10 | NCCOCCNC(=O)[C@@H]1CCNC(=O)/C=C/C(=O)N2CCC[C@](Cc3ccccc3)(C2)C(=O)N[C@@H](Cc2ccc(-c3ccc4c(c3)OCC4CC(=O)O)cc2)C(=O)NCc2ccccc2CC(=O)N1 (single isomer, unassigned) [B37] | 8.01 | 8.10 | 5.00 | 7.14 | 5.40 | 4.40 | 5.15 | 4.72 | 6.80 | 4.30 | 7.70 | pIC50 (CypH; [11]): 5.00; pIC50 (NKTR; [16]): < 4.30
11 | NCCOCCNC(=O)[C@@H]1CCNC(=O)/C=C/C(=O)N2CCC[C@](Cc3ccccc3)(C2)C(=O)N[C@@H](Cc2ccc(-c3ccc(C(=O)CCC(=O)O)cc3)cc2)C(=O)NCc2ccccc2CC(=O)N1 | 7.15 | 8.15 | < 4.30 | 6.64 | 7.05 | 5.22 | 5.15 | 4.80 | 6.68 | 4.30 | 7.30 | pIC50 (PPWD1; [12]): 4.80; pIC50 (NKTR; [16]): 4.30
12 | NC(=O)[C@@H]1CCNC(=O)/C=C/C(=O)N2CCC[C@](Cc3ccccc3)(C2)C(=O)N[C@@H](Cc2ccc(-c3ccc(CC(C(=O)O)C(=O)O)cc3)cc2)C(=O)NCc2ccccc2CC(=O)N1 | 6.49 |  | < 4.30 | 5.82 | 4.82 | < 4.30 | < 4.30 | < 4.30 |  | < 4.30 | 6.22 | 
13 | CCOC(=O)CCc1ccc(-c2ccc(C[C@@H]3NC(=O)[C@]4(Cc5ccccc5)CCCN(C4)C(=O)/C=C/C(=O)NCC[C@@H](C(=O)NCCOCCN)NC(=O)Cc4ccccc4CNC3=O)cc2)cc1 | 6.48 | 6.85 | < 4.30 | 5.92 | 5.80 | 4.43 | 5.64 | 5.43 | 6.64 | < 4.30 | 6.40 | 
14 | NCCOCCNC(=O)[C@@H]1CCNC(=O)/C=C/C(=O)N2CCC[C@](Cc3ccccc3)(C2)C(=O)N[C@@H](Cc2ccc(-c3ccc([N+](=O)[O-])cc3)cc2)C(=O)NCc2ccccc2CC(=O)N1 | 6.34 | 6.82 | < 4.00 | 6.22 |  | 5.22 | 6.49 | 6.43 | 6.85 | 5.10 | 6.92 | pIC50 (Cyp40; [15]): 6.92
15 | Cc1cccc(C[C@@H]2NC(=O)[C@]3(Cc4ccccc4)CCCN(C3)C(=O)/C=C/C(=O)NCC[C@@H](C(=O)NCCOCCN)NC(=O)Cc3ccccc3CNC2=O)c1 | 4.92 | 5.82 | < 4.00 | 5.00 | 5.52 | 4.64 | 5.15 | 4.00 | 5.00 | < 4.00 |  | pIC50 (PPIL1; [14]): 5.00
16 | NC(=O)[C@H]1CCNC(=O)/C=C/C(=O)N2CCC[C@@](Cc3ccccc3)(C2)C(=O)N[C@H](Cc2ccc(-c3ccc(CC(C(=O)O)C(=O)O)cc3)cc2)C(=O)NCc2ccccc2CC(=O)N1 | < 4.30 |  | < 4.30 | < 4.30 | < 4.30 | < 4.30 | < 4.30 | < 4.30 | < 4.30 | < 4.30 | < 4.30 | 
